Experiments:
[1] = biological target: nucleoside hydrolase from Crithidia fasciculata (Crithidia fasciculata, UniProt Q27546); test: Protozoan nucleoside hydrolase inhibition, p-nitrophenyl riboside substrate; type: biochemical; details: read-out: Ki Values; nucleoside hydrolase C. fasciculata; Ia average of multiple determinations, Ib, Ic, Va single determination; tested form: HCl
[2] = biological target: calf spleen (bovine) purine nucleoside phosphorylase (Bos taurus, UniProt P55859); details: tested form: HCl

Protein sequences, listed by entry. Tags and fused reporters are not part of them.
UniProt Q27546, whole entry: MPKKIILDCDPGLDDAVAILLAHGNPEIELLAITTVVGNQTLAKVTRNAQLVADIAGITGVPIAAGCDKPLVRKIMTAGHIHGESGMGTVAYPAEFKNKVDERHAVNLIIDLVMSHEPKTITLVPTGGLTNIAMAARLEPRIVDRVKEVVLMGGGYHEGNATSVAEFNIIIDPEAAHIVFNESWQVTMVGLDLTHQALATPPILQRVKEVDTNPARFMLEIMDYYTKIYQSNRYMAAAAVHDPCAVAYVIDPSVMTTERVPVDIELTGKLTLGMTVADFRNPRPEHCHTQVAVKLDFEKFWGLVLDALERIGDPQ
UniProt P55859, whole entry: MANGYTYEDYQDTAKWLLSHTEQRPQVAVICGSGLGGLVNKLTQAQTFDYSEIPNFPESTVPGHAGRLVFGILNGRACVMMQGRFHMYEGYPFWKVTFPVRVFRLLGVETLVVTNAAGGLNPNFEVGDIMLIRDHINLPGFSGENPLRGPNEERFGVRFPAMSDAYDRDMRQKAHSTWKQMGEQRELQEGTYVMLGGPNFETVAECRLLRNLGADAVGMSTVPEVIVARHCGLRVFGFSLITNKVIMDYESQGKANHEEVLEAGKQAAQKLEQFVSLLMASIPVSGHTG

Compound: Nc1nc2c(C3NC(CO)C(O)C3O)c[nH]c2c(=O)[nH]1 (centres unmarked)
- Ki [1]: 7 nM
- Ki [2]: 0.03 nM

From US7390890B2, “Inhibitors of nucleoside metabolism” (Albert Einstein College of Medicine of Yeshiva University, priority 1997, dated 2008)
